# Test results: PubChem BioAssay AID485364 (National Center for Advancing Translational Sciences (NCATS), 2010)
# The entries are a selection whose mix differs from that of the whole data set. Active and inactive are the calls of the source. The call rests on the fitted dose curve; in most records, active means well fitted inhibition curve with a large enough effect; inconclusive means small, poorly fitted or top-dose-only effect; inactive means no such curve, though single readings can be large or run the other way. Entries that show only a call come without a potency.
# Molecular target: Schistosoma mansoni thioredoxin glutathione reductase (TGR) (UniProt Q962Y6)
# Assay: qHTS Assay for the Inhibitors of Schistosoma Mansoni Peroxiredoxins; further: nearly all actives have a fitted effect of over 60% in size
# Conditions: purified TGR, DTNB reduction, TNB absorbance 405 nm; series mostly up to 114 µM
# Text: Schistosomiasis is a major neglected tropical disease that currently affects over 200 million. It is caused by different species of flatworms, such as Schistosoma mansoni. Over the last century, drugs to treat the disease have evolved from potassium antimonyl tartrate, artemisinin, oxamniquine, to praziquantel, with praziquantel remaining the universally-used single drug of choice over the past three decades. However, transmission rates have changed little with praziquantel, and there is evidence for the development of drug resistant parasites. Because there is currently no suitable alternative therapy available, there is an urgent need to identify new targets and drugs for schistosomiasis treatment. Thioredoxin glutathione reductase (TGR), one uniquely positioned S. mansoni enzyme, has been identified as a major component of the worms' distinct and compressed antioxidant "firewall". TGR is a multifunctional enzyme that catalyzes the interconversion between reduced and oxidized forms of both glutathione (GSH) and thioredoxins, thus making it an attractive new antiparasitic target. Recently, a quantitative high-throughput screen of the NIH Molecular Libraries Small Molecule Repository (MLSMR, ~71K at the time of the screen in 2007) was performed using an assay that targeted both TGR and peroxiredoxin2 (Prx2, an H2O2-reducing enzymatic component of the S. mansoni redox "firewall") by following the decrease of NADPH fluorescence. […] Additional mechanistic link between exogenous NO donation and parasitic injury for the oxadiazole-2-oxide class of compounds was also expanded and better defined. Although the screen addressed both TGR and Prx2, the assay required post-screen target deconvolution for further characterization of the actives. In addition, the fluorescence assay was also subject to fluorescence interference from compound library members. We have developed a 1536-well-based kinetic HTS assay to address TGR alone. The assay followed the reduction of 5, 5'-dithiobis (2-nitrobenzoic acid) (DTNB) (Ellman's reagent) by NADPH and measured the increase in absorbance at 412 nm of the reaction product, TNB. […] This assay format can be used to screen the current MLSMR collection (with >300K compounds available) to find novel TGR inhibitors. Furoxan is a good choice to serve as a positive control in the primary HTS assay.
# Three microliters of reagents (100 uM NADPH and 20 nM TGR or 100 uM NADPH as no-enzyme control) were dispensed into 1,536-well black clear-bottomed plates. Compounds (23 nL) were transferred via Kalypsys pin tool equipped with 1536-pin array (10 nL slotted pins, V&P Scientific, San Diego, CA). The plates were then be incubated for 15 min at room temperature, and 1 uL aliquot of 500 uM NADPH were added, immediately followed by a 1 uL aliquot of 15 mM DTNB to start the reaction. The plate was transferred to a ViewLux high-throughput CCD imager (Perkin-Elmer, Wellesley, MA) where kinetic measurements of the TNB absorbance were acquired using a 405 excitation filter. Throughout the screen, reagent bottles and all liquid lines were made light-tight to minimize reagent degradation. All screening operations were performed on a fully integrated robotic system (Kalypsys, San Diego, CA) containing one RX-130 and two RX-90 anthropomorphic robotic arms (Staubli, Duncan, SC). Library plates were screened starting from the lowest and proceeding to the highest concentration, and a "double-dipping" step of the highest concentration was required to access higher concentrations of compounds. Vehicle-only plates, with DMSO being pin-transferred to the entire column 5-48 compound area, were inserted uniformly at the beginning and the end of each library in order to monitor for and record any shifts in the background, which can be affected by reagent dispensers or loss in enzyme activity overtime. […]
# Potency means the concentration at half of the fitted maximal effect.
row,SMILES,Potency
1,CN1CCCCC1COC(=O)C1(O)c2ccccc2CCc2ccccc21 (configuration not stated),inactive
2,COc1ccccc1OP(C)(=O)Nc1c(C)cccc1C (configuration not stated),inactive
3,CP(=O)(Nc1ccc(SC(F)(F)F)cc1)Oc1ccccc1 (configuration not stated),inactive
4,CCCOc1ccc(NP(C)(=O)Oc2ccc(Cl)cc2)cc1 (configuration not stated),inactive
5,O=[N+]([O-])c1cc([N+](=O)[O-])c(Nc2nnnn2CCO)c([N+](=O)[O-])c1,inactive
6,CC1=C2N=C(C=C3N=C(C(C)=C4[N-][C@@](C)([C@@H]5N=C1[C@](C)(CCC(=O)NC[C@@H](C)OP(=O)([O-])O[C@H]1[C@@H](O)[C@@H](n6cnc7cc(C)c(C)cc76)O[C@@H]1CO)[C@H]5CC(N)=O)[C@@](C)(CC(N)=O)[C@@H]4CCC(N)=O)[C@@](C)(CC(N)=O)[C@@H]3CCC(N)=O)C(C)(C)[C@@H]2CCC(N)=O.[C-]#N.[Co+3],inactive
7,Cc1nc2ccc3ccccc3c2s1.O=[N+]([O-])c1cc([N+](=O)[O-])c(O)c([N+](=O)[O-])c1,inactive
8,CP(=O)(Nc1cccc(Br)c1)Oc1ccccc1 (configuration not stated),inactive
9,Cc1cc(C)cc(OP(C)(=O)Nc2ccccn2)c1 (configuration not stated),inactive
10,Cc1ccc(C)c(NP(C)(=O)Oc2ccccc2)c1 (configuration not stated),inactive
11,COc1ccccc1OP(C)(=O)Nc1cccc(Br)c1 (configuration not stated),inactive
12,Cc1cc(C)cc(OP(C)(=O)Nc2ccc(C)cc2C)c1 (configuration not stated),inactive
13,CCOC(=O)c1ccc(NP(C)(=O)Oc2cc(C)cc(C)c2)cc1 (configuration not stated),inactive
14,CC1=NCCc2c1[nH]c1ccccc21.O=[N+]([O-])c1cc([N+](=O)[O-])c(O)c([N+](=O)[O-])c1,inactive
15,CCOC(=O)c1ccc(NP(C)(=O)Oc2ccccc2)cc1 (configuration not stated),inactive
16,Cc1ccc(NP(C)(=O)Oc2ccccc2)c(C)c1 (configuration not stated),inactive
17,COc1ccccc1OP(C)(=O)Nc1ccc(C)cc1 (configuration not stated),inactive
18,COc1ccc(OP(C)(=O)Nc2cccc(F)c2)cc1 (configuration not stated),inactive
19,COc1ccccc1OP(C)(=O)Nc1cc(Cl)ccc1C (configuration not stated),inactive
20,Cc1cc(C)cc(OP(C)(N)=O)c1 (configuration not stated),inactive
21,O=[N+]([O-])c1cc([N+](=O)[O-])c(Nc2cccnc2)c([N+](=O)[O-])c1,active: 35.5 µM
22,Cc1cccc(C)c1OP(C)(N)=O (configuration not stated),inactive
23,CC(C)(C)c1ccc(OP(C)(=O)Nc2ccc(SC(F)(F)F)cc2)cc1 (configuration not stated),inactive
24,O=[N+]([O-])c1ccc2c(c1)C=Nc1ccccc1O2,inactive
25,CCN(CC)CCCOC(=O)C(O)(c1ccccc1)c1ccccc1,inactive
26,CCOP(C)(=S)SCC(=O)NC(C)C(=O)O (configuration not stated),inactive
27,CCOC(=O)c1ccc(NP(C)(=O)Oc2ccc(OC)cc2)cc1 (configuration not stated),inactive
